These are literature values, as cited in publication PMC3299084 (Journal of Medicinal Chemistry, 2012).

Sequences of proteins named here, by UniProt entry; tags and fusion partners are left off. Residues count along the entry.
UniProt P29317, 24-537: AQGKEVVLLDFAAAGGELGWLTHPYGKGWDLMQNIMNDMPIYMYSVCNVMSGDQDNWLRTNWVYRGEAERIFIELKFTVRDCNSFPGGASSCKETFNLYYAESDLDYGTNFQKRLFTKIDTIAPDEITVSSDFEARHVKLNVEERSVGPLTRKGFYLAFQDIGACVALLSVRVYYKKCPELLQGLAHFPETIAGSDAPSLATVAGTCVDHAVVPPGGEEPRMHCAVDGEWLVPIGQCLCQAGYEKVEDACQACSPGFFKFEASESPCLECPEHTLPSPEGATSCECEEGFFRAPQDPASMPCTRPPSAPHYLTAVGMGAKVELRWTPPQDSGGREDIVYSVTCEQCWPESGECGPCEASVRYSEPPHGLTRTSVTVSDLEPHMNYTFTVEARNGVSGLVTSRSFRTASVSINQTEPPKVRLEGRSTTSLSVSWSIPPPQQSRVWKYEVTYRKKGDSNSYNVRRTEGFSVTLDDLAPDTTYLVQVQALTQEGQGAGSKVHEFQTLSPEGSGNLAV

This series deals with EphA2 (Homo sapiens, UniProt P29317). Conditions: cited from earlier work.

For YSA peptide, the dissociation constant (Kd) is 200 nM.

One may read the Kd as the constant that tells how readily two partners part at equilibrium.
